Our source for the EC50 values is patent publication US5385831A, “Method for producing a mammalian G protein coupled glutamate receptor” (priority 1993, dated 1995).

Chains of the proteins cited; added tags and fusions are not shown. Residues count along the entry.
UniProt P23385, 19-1199: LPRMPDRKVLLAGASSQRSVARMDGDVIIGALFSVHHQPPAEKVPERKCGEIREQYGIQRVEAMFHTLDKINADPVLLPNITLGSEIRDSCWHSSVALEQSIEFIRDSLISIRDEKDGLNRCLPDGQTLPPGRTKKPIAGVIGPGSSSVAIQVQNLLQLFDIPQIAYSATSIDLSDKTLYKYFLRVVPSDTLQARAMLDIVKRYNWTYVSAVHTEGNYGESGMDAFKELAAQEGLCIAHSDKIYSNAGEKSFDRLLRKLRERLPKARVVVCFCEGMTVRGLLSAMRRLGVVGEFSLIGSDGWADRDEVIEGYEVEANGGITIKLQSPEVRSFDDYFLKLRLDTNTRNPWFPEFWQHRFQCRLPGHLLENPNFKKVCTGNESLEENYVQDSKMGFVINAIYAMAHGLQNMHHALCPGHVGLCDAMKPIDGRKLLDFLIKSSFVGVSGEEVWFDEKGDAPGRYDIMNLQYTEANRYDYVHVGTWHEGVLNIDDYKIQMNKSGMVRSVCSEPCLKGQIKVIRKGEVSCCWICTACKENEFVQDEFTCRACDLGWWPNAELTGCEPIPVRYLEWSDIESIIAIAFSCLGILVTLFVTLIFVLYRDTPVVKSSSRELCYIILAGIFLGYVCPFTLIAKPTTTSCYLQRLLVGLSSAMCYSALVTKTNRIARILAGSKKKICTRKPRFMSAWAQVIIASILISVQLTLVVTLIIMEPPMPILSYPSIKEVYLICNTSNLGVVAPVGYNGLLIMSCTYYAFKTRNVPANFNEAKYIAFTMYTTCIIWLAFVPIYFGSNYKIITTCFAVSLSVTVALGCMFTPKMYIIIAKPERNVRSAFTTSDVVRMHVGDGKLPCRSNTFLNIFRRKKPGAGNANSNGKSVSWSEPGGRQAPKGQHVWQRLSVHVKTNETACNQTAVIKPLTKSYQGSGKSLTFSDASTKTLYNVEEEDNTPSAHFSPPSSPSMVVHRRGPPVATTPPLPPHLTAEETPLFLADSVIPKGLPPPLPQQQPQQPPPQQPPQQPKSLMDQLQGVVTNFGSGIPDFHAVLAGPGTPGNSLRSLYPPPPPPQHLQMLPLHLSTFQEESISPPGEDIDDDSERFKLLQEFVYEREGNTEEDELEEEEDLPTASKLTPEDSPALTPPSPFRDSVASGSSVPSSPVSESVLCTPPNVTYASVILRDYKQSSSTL

In the assay the target is GluG R encoded by clone 45-A (Rattus norvegicus, UniProt P23385). In words: cell-based.

Turning to `N[C@@]1(C(=O)O)CC[C@@H](C(=O)O)C1` (relative stereo) [tACPD, trans 1-amino-cyclopentyl-1,3 dicarboxylic acid], the EC50 came to 376 µM.

The term EC50 denotes the concentration giving half of the maximal effect. High values mean a less potent agent, low ones a more potent agent.
